Tested on: HepaRG cells
Test: MTT cell viability assay
Assay type: cell-based, human
Conditions: 4 μM CsA, protocol Fig. 1A, Fig. S1A

cyclosporin A [CsA]
Cytotoxicity (cell viability, MTT): without causing cytotoxicity
